This note sets out measurements from US8703199B2, “Pharmaceutical compositions of adsorbates of amorphous drug” (Bend Research, Inc., priority 2001, dated 2014).

A short description of the data set: accelerated storage test of physical stability (PXRD). It counts as physicochemical. The conditions noted are these: stored for 1 week at 40° C./75% RH.

Regarding “quinoxaline-2-carboxylic acid [4(R)-carbamoyl-1(S)-3-fluorobenzyl)-2(S), 7-dihydroxy-7-methyl-octyl]amide [Control 1B]”, the “crystallization of drug on storage” value is on record as “significant crystallization”.
